Values quoted from earlier work in patent US5468875A, “1-azabicycloheptane derivatives” (American Home Products Corporation, priority 1994, dated 1995).

Test system: m1 receptors
Settings: cited from earlier work

Q: For `C[N+](C)(C)CCOC(N)=O` [carbachol], which “activation of m1 receptors” value is on record?
A: The value was “able to fully activate m1 receptors”.
